For one compound, IC50 results are on record in US6410541B2, “Compounds useful for inhibition of farnesyl protein transferase” (Schering Corporation, priority 1997, dated 2002).

Amino acid sequences for entries named in this document (tags omitted).
UniProt Q02293, whole entry: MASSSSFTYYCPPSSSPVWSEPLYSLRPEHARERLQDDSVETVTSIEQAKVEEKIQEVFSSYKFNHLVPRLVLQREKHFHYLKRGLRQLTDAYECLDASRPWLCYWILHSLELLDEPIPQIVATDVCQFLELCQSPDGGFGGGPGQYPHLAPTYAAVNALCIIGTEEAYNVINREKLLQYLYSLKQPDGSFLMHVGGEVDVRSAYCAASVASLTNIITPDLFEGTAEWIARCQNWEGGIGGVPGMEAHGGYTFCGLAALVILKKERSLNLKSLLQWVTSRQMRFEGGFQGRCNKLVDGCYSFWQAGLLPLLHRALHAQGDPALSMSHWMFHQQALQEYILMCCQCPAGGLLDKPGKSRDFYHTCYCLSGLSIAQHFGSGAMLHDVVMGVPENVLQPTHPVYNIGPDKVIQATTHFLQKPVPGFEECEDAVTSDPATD

The test has as its target farnesyl protein transferase (UniProt Q02293+Q04631). Put plainly: FPT IC50 (inhibition of farnesyl protein transferase, in vitro enzyme assay). Type of test: biochemical. To be noted: read-out: FPT IC50; in vitro enzyme assay per WO 95/10516. The procedure:
FPT IC50 (inhibition of farnesyl protein transferase, in vitro enzyme assay) and COS Cell IC50 (Cell-Based Assay) were determined following the assay procedures described in WO 95/10516, published Apr. 20. 1995. GGFT IC50 (inhibition of geranylgeranyl protein transferase, in vitro enzyme assay), Cell Mat Assay, and anti-tumor activity (in vivo anti-tumor studies) could be determined by the assay procedures described in WO 95/10516. The disclosure of WO 95/10516 is incorporated herein by reference thereto.
In Table 10, “nM” represents nanomolar.

Usually IC50 stands for the concentration needed to halve the response being measured. On to `COc1ccc2c(c1)CC(CC(=O)N1CCC([C@H]3c4ncc(Br)cc4CCc4cc(Cl)cc(Br)c43)CC1)C2=O` (single isomer, unassigned), for which the half-inhibitory concentration (IC50) is 0.17 µM.
